Values quoted from earlier work, collected in US8629110B2, “Kv1.3 channel blocking substances for the treatment of diseases associated with intimal hyperplasia” (priority 2008, dated 2014).

By UniProt entry, the sequences of proteins in these tests, tags left out.
UniProt P22001, whole entry: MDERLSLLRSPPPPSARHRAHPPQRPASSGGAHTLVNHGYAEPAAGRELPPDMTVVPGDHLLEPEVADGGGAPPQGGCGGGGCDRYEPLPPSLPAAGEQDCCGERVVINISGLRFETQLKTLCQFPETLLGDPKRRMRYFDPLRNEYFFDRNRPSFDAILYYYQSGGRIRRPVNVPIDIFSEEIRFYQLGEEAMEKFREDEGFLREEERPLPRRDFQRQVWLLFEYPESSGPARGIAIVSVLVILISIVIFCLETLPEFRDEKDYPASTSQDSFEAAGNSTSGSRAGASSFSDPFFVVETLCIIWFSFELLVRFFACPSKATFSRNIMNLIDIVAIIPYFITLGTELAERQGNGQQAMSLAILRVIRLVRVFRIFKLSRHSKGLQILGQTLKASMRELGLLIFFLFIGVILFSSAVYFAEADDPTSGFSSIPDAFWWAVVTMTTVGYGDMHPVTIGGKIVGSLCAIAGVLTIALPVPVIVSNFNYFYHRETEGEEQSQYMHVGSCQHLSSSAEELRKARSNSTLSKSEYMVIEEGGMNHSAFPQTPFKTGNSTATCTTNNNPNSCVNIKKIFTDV

Target: Kv1.3 channel (Homo sapiens, UniProt P22001)
Details: read-out: Affinity (Kd); cited from earlier work

SMILES: CCCN=c1ccn(Cc2ccccc2)c2cc(Cl)ccc12
- Kd: 200 nM
